Experimental data reported in publication PMC12836348, “Alanine Mutagenesis Identifies Specific Amino Acids of Nemertide Alpha‑1 Activity and Its Binding to Target Receptors” (Journal of Natural Products, 2025).

System: AaNav
Test: Ion channel panel, AaNav
Assay type: cell-based, Aedes aegypti
Design: key: “+” means tested and produced effect; “–“ means tested but no effect
Conditions: S12A at 5 μM; Xenopus oocytes, n ≥ 3
Description: For the expression of NaV channels (hNav1.1, rNaV1.2, rNaV1.3, rNaV1.4, hNaV1.5, hNaV1.6, hNav1.7, and the insect channel BgNaV1) in Xenopus laevis oocytes, the linearized plasmids were transcribed using the T7 or SP6 mMESSAGE-mMACHINE transcription kit (Ambion, Carlsbad, CA, USA). The harvesting of stage V and VI oocytes from an anaesthetized female X. laevis frog was described previously. , Oocytes were injected with 50 nL of cRNA at a concentration of 1 ng/nL using a microinjector (Drummond Scientific, Broomall, PA, USA). The oocytes were incubated in a solution containing 96 mM NaCl, 2 mM KCl, 1.8 mM CaCl2, 2 mM MgCl2, and 5 mM HEPES (pH 7.4), supplemented with 50 mg/L gentamycin sulfate. […] Whole-cell currents from oocytes were recorded 1–4 days after injection. […]
To assess the concentration–response relationships, data were fitted with the Hill equation: y = 100/[1 + (EC50/[toxin])^ h ], where y is the amplitude of the toxin-induced effect (y = I 30 ms/I peak where I 30 ms is the current value at 30 ms in the presence of toxin and I peak is the peak current amplitude in control conditions), EC50 is the toxin concentration at half-maximal efficacy, [toxin] is the toxin concentration, and h is the Hill coefficient. […] ASIC1a currents were measured in ND96 solutions at a pH of 7.4 and 4.5, at a holding potential of −70 mV during 400 s, and the data were filtered at 20 Hz. […]

SMILES: CC[C@H](C)[C@@H]1NC(=O)[C@@H](NC(=O)CN)CSSC[C@@H]2NC(=O)[C@@H]3CSSC[C@@H](C(=O)N[C@@H](CC(N)=O)C(=O)N4C[C@H](O)C[C@H]4C(=O)N4C[C@H](O)C[C@H]4C(=O)N[C@@H](CC(N)=O)C(=O)N[C@@H](CCC(N)=O)C(=O)O)NC(=O)[C@H](CCCCN)NC(=O)[C@H](Cc4ccccc4)NC(=O)[C@H](CC(N)=O)NC(=O)[C@H](Cc4c[nH]c5ccccc45)NC(=O)CNC(=O)[C@H](CSSC[C@H](NC(=O)[C@H](Cc4ccccc4)NC(=O)[C@H](CO)NC(=O)CNC(=O)[C@H]([C@@H](C)O)NC(=O)[C@H](C)NC1=O)C(=O)N[C@@H]([C@@H](C)O)C(=O)N[C@@H](CC(C)C)C(=O)N[C@@H](C)C(=O)N[C@@H](CCCCN)C(=O)NCC(=O)N3)NC(=O)[C@H](CC(N)=O)NC(=O)[C@H](CCCCN)NC(=O)[C@H]([C@@H](C)O)NC2=O [Peptide S12A]
- effect on AaNav: +
